The values that follow come from PubChem BioAssay AID932 (The Scripps Research Institute Molecular Screening Center, 2007).

Only a part is listed here, and it is no random draw. Active and inactive are the calls of the source.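 The calls were made as follows: active = activation above the screen-wide mean activation plus 3 SD (cut at about 130% in these data); inactive = the rest.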

This experiment can be described thus: STAT1 signaling activators, primary screen, cell-based, HTS, luciferase reporter (AID 932).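 Also: raw ratio to IFN-gamma control signal so 100% means no change and 0% no light.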 Conditions: NIH 3T3 STAT1-luciferase reporter, IFN-gamma, luminescence; at 5.5 µM; stronger effect = higher value; 100% = IFN-gamma alone, no compound.
For the compound `O=[N+]([O-])c1ccc2c(c1)nnn2O`, the activation (% of control) was inactive: 94.1%.

`CCOP1(=S)c2c(C)nn(CCC#N)c2N=C(c2ccc(F)cc2)N1C` (centres undefined): the activation (% of control) is inactive: 95%.

Consider `CCOP1(=S)c2c(C)nn(CCC#N)c2N=C(c2ccccc2F)N1C` (centres undefined), for which the activation (% of control) is inactive: 103%.

For the compound `O=P(Nc1nccs1)(c1ccccc1)c1nc2ccccc2s1` (centres undefined), the activation (% of control) is inactive: 95.2%.

As for `O=P(Nc1nccs1)(Oc1ccccc1)Oc1ccccc1`, the activation (% of control) is inactive: 93.1%.

Turning to `COc1cc(C2NCCC3(OCCO3)C2(C)C)cc(OC)c1OC` (centres undefined), the activation (% of control) is inactive: 94.9%.

Turning to `CCOP(=O)(Nc1cccc2ccccc12)OCC`, the activation (% of control) is inactive: 95.8%.

Turning to `Cc1ccc(NCCc2c([N+](=O)[O-])cc([N+](=O)[O-])cc2[N+](=O)[O-])cc1`, the activation (% of control) was inactive: 91.3%.

As for `Cc1cccc(OCC(=O)OC2CN3CCC2CC3)c1` (centres undefined), the activation (% of control) was inactive: 98.5%.

In the case of `COc1cc(C(=O)NCC2(N3CCOCC3)CCCCC2)cc(Cl)c1OC(C)C`, the activation (% of control) was inactive: 99.1%.

Consider `CC1(CBr)Cn2c(nc3ccccc3c2=O)S1` (centres undefined), for which the activation (% of control) was inactive: 99.1%.

Take `CC(C)/C=N\N=C(\N)N[N+](=O)[O-]`: the activation (% of control) was inactive: 101%.

With `Clc1n[nH]nc1-c1nn[nH][15n]1`, the activation (% of control) is inactive: 102%.

Take `O=P1(Nc2ccccn2)COc2ccccc2OC1`: the activation (% of control) is inactive: 101%.

Regarding `O=P1(Nc2ccc(Br)cn2)COc2ccccc2OC1`, the activation (% of control) is inactive: 96.5%.

Take `Cc1ccc(OCC(=O)OC2CN3CCC2CC3)cc1` (centres undefined): the activation (% of control) is inactive: 93%.

As to `O=P1(Nc2ncccn2)COc2ccccc2OC1`, the activation (% of control) is inactive: 104%.

With `CN(C)C1(CNC(=O)c2ccc(S(C)(=O)=O)cc2)CCCCC1`, the activation (% of control) is inactive: 104%.

Take `Cc1nn(-c2ccccc2)c2c1P(=O)(N1CCOCC1)N(C)C(c1ccccc1)=N2` (centres undefined): the activation (% of control) is inactive: 95.8%.

On to `CC1CCC(C(C)C)C(OP(=O)(Nc2ccccn2)c2ccccc2)C1` (centres undefined), for which the activation (% of control) is inactive: 102%.

Consider `Cc1cc(SC(NC=O)C(Cl)(Cl)Cl)ncn1` (centres undefined), for which the activation (% of control) was inactive: 95.5%.

Regarding `O=P(Nc1ccccn1)(c1cccc2ccccc12)c1cccc2ccccc12`, the activation (% of control) was inactive: 105%.

Consider `Cc1cc(SC(NC(=O)c2ccccc2)C(Cl)(Cl)Cl)nc(C(C)C)n1` (centres undefined), for which the activation (% of control) is inactive: 100%.

Take `CCC(C)N(CC(C)C)C(=S)SC(NC(C)=O)C(Cl)(Cl)Cl` (centres undefined): the activation (% of control) is inactive: 104%.

On to `O=C(COc1ccccc1)OC1CN2CCC1CC2` (centres undefined), for which the activation (% of control) is inactive: 93.6%.

For the compound `COP1(=S)c2c(C)nn(CCC#N)c2N=C(c2ccc(F)cc2)N1C` (centres undefined), the activation (% of control) is inactive: 99.9%.

Turning to `COc1ccc(N/C(=N/P(=O)(N2CCOCC2)N2CCOCC2)N2CCOCC2)cc1`, the activation (% of control) was inactive: 103%.

On to `COc1ccc2nc(NP(=O)(c3ccccc3)c3ccccc3)sc2c1`, for which the activation (% of control) was inactive: 96.4%.

Turning to `O=C(OC1CN2CCC1CC2)C12CC3CC(CC(C3)C1)C2` (centres undefined), the activation (% of control) is inactive: 94.7%.

Turning to `Cc1cc(=O)[nH]c(N[N+](=O)[O-])n1`, the activation (% of control) is inactive: 99.2%.

Consider `Cc1c2c(nc3ccccc13)SC(C(Cl)Cl)C2` (centres undefined), for which the activation (% of control) was inactive: 109%.

In the case of `CCN(CC)C(=S)SC(NC=O)C(Cl)(Cl)Cl` (centres undefined), the activation (% of control) is inactive: 94.6%.

With `CC(C)NC(=O)NP(=O)(Oc1ccccc1)Oc1ccccc1`, the activation (% of control) is inactive: 105%.

Turning to `O=[N+]([O-])c1cc([N+](=O)[O-])c(-c2ccn[nH]2)s1`, the activation (% of control) is inactive: 88.7%.

As for `ClCCSc1nnc(-c2cccnc2)o1`, the activation (% of control) was inactive: 105%.

`Cc1ccc2nc3c(c(C)c2c1)CC(C(Cl)Cl)S3` (centres undefined): the activation (% of control) was inactive: 122%.

As to `CCN(N=Nc1nonc1N)c1nonc1N`, the activation (% of control) was inactive: 93.4%.

Consider `CCOP(=O)(Nc1ccccc1)OCC`, for which the activation (% of control) was inactive: 102%.

Turning to `Cc1cc(SC(NC(=O)c2ccc(F)cc2)C(Cl)(Cl)Cl)ncn1` (centres undefined), the activation (% of control) is inactive: 96.8%.

Take `CC(C)CC(=O)NC(Sc1ccc(Cl)cc1)C(Cl)(Cl)Cl` (centres undefined): the activation (% of control) was inactive: 109%.

Consider `Oc1ccccc1CNc1ccccn1`, for which the activation (% of control) was inactive: 103%.

For the compound `Cc1c2non([O-])c-2c(C)[n+](=O)[n+]1[O-]`, the activation (% of control) was inactive: 90.6%.

Regarding `O=C(NC(Sc1ccncn1)C(Cl)(Cl)Cl)c1ccccc1` (centres undefined), the activation (% of control) is inactive: 102%.

In the case of `COc1ccccc1OP(=O)(Nc1ccc(C)cn1)Oc1ccccc1OC`, the activation (% of control) was inactive: 98.5%.

As for `Clc1ccc(Cl)c(NC2=NCC(CBr)S2)c1` (centres undefined), the activation (% of control) is inactive: 103%.

Take `CN1CCCC(OC(=O)C(c2ccccc2)c2ccccc2)C1` (centres undefined): the activation (% of control) is inactive: 107%.

With `NC(=O)c1cc([N+](=O)[O-])cc([N+](=O)[O-])c1N`, the activation (% of control) is inactive: 98%.

In the case of `Cc1ccc(N/C(=N/P(=O)(N2CCOCC2)N2CCOCC2)N2CCOCC2)cc1`, the activation (% of control) is inactive: 103%.

Consider `CC(C)=N/N=C(\N)N[N+](=O)[O-]`, for which the activation (% of control) is inactive: 93.9%.

Regarding `CN(C)C(=O)OCCc1n(C)cc[n+]1C`, the activation (% of control) is inactive: 99.3%.

For `CC1CCN(C(=O)Oc2c(Cl)cc(Cl)c3cccnc23)CC1`, the activation (% of control) is inactive: 85.4%.

For `CCN(/C(=N/P(=O)(N1CCOCC1)N1CCOCC1)N1CCOCC1)c1ccc(OC)cc1`, the activation (% of control) is inactive: 97.5%.

Turning to `CC(=O)N1C2C3N(C(C)=O)C1C1N(C(C)=O)C(C(N1C(C)=O)N3C(C)=O)N2C(C)=O`, the activation (% of control) is inactive: 93.4%.

As to `O=[N+]([O-])c1cccc2n[nH]nc12`, the activation (% of control) was inactive: 98.3%.

Take `Cc1ccc(NP(=O)(Oc2ccccc2)Oc2ccccc2)nc1`: the activation (% of control) is inactive: 104%.

Regarding `O=[N+]([O-])c1cc([N+](=O)[O-])c(CCNc2ccccc2)c([N+](=O)[O-])c1`, the activation (% of control) is inactive: 88.5%.

For the compound `CCc1nc2c(n1)c1c(non1O)c1c2no[n+]1[O-]`, the activation (% of control) is inactive: 93.6%.

`COc1ccc(C2=NCC(CBr)S2)cc1` (centres undefined): the activation (% of control) is inactive: 106%.

For the compound `O=[N+]([O-])c1ncn(CCn2ncnc2[N+](=O)[O-])n1`, the activation (% of control) is inactive: 92.8%.

As to `C(Cc1nn[nH]n1)Cc1nn[nH]n1`, the activation (% of control) is inactive: 104%.

Consider `O=C(OC1CN2CCC1CC2)c1cccc(Cl)c1` (centres undefined), for which the activation (% of control) was inactive: 108%.

`CC(=O)NC(SC(=S)N(C)C)C(Cl)(Cl)Cl` (centres undefined): the activation (% of control) was inactive: 105%.

For `O=P(Nc1ccccn1)(c1ccc(Br)cc1)c1ccc(Br)cc1`, the activation (% of control) is inactive: 90.1%.

Turning to `c1nnnn1CCn1cnnn1`, the activation (% of control) is inactive: 99.1%.

`O=P(Nc1nccs1)(c1ccccc1)c1ccccc1`: the activation (% of control) was inactive: 102%.

Regarding `CC(C)C(=O)NC(Sc1ccccc1)C(Cl)(Cl)Cl` (centres undefined), the activation (% of control) was inactive: 103%.

Take `CC(=O)Nc1ccc(Oc2c([N+](=O)[O-])cc([N+](=O)[O-])cc2[N+](=O)[O-])cc1`: the activation (% of control) is inactive: 94.8%.

`CC(C)(C)C(=O)NC(Sc1ccccc1)C(Cl)(Cl)Cl` (centres undefined): the activation (% of control) is inactive: 92.1%.

With `O=P1(Nc2nc3ccc(Cl)cc3s2)COc2ccccc2O1` (centres undefined), the activation (% of control) was inactive: 106%.

Regarding `CCOc1ccc(C2=NCC(CBr)S2)cc1` (centres undefined), the activation (% of control) was inactive: 101%.

Take `O=c1c2cc([N+](=O)[O-])ccc2[nH]c2c([N+](=O)[O-])cc([N+](=O)[O-])cc12`: the activation (% of control) was inactive: 82.6%.

`COC(=O)c1cc2c(s1)N=C(c1ccccc1)N(C)P2(=O)N1CCOCC1` (centres undefined): the activation (% of control) is inactive: 96.6%.

Turning to `CC(=O)NC(SC(=S)N(CC(C)C)CC(C)C)C(Cl)(Cl)Cl` (centres undefined), the activation (% of control) was inactive: 99.3%.

Consider `Cc1ccc(OP(=O)(Nc2ccccn2)Oc2ccc(C)cc2)cc1`, for which the activation (% of control) is inactive: 102%.

`CCC(=O)N1C2C3N(C(=O)CC)C1C1N(C(=O)CC)C(C(N1C(=O)CC)N3C(=O)CC)N2C(=O)CC`: the activation (% of control) was inactive: 100%.

Turning to `O=C(NC1CCS(=O)(=O)C1)NP(=S)(Oc1ccccc1)Oc1ccccc1` (centres undefined), the activation (% of control) was inactive: 101%.

`CCNC(=S)/N=C(\N)N[N+](=O)[O-]`: the activation (% of control) was inactive: 98.3%.

As for `c1ccc(-c2nn[nH]n2)c(-c2nn[nH]n2)c1`, the activation (% of control) was inactive: 100%.

Consider `CCOC(=O)NC(Sc1ccccc1)C(Cl)(Cl)Cl` (centres undefined), for which the activation (% of control) was inactive: 87.2%.
